Consider one compound from paper PMC10709440, “High-throughput ligand profile characterization in novel cell lines expressing seven heterologous insect olfactory receptors for the detection of volatile plant biomarkers” (Scientific Reports, 2023).

The assay has as its target T1, Drosophila OR85b (Drosophila melanogaster, UniProt Q9VHQ7).
T1 construct: expressed in transfected cells
T1 sequence (Q9VHQ7 1-390): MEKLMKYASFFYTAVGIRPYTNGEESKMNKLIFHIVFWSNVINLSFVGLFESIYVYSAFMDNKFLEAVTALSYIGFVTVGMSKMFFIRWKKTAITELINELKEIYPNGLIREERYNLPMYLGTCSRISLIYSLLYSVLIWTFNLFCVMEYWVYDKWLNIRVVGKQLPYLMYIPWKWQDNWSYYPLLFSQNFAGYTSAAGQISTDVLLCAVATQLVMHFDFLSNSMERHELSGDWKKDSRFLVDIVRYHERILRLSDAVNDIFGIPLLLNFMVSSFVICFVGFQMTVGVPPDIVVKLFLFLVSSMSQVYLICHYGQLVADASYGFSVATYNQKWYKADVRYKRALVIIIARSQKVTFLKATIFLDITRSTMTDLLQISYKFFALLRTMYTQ
T1 sequence (Q9VNB5 1-486 partner): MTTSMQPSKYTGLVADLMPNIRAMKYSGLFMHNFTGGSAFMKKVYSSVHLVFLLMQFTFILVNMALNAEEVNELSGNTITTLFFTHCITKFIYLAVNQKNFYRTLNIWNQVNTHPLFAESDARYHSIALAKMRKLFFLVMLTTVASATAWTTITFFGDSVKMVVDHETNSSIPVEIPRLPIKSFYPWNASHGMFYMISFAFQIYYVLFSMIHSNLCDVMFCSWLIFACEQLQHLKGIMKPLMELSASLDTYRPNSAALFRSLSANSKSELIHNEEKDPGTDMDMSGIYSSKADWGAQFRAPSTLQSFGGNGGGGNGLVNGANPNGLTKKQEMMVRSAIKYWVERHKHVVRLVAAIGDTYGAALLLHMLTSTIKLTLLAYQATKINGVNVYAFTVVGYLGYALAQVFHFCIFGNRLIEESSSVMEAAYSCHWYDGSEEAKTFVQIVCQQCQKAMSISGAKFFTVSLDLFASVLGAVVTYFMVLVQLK
Kind of assay: Calcium ion fluorescence (GCaMP6) assay, OR85b stable HEK293 cell line. Particulars: for Average response: OR85b cell line, VUAA1-normalized response, mean of biological replicates; for DF norm AVERAGE OR85b: normalized fluorescence change, values below 0.05 threshold given as 0. It is filed as cell-based. As to the method:
These VUAA1 normalized ∆F values were used to compare the different receptors and ligands.
The concentration-dependent effect of the reference ligands on their cognate cell lines was examined in more detail. Twelve different ligand concentrations were measured on each cell line in an overall 0.01 μM to 100 μM concentration range with 5 repetitions with three technical replicates each time.
Twelve thousand to 18,000 cells were plated into each well of a black wall, transparent bottom 384-well microplate (Greiner) 48 h or 72 h before the measurements and were simultaneously treated with 1 μg/mL doxycycline. […] The plate has 24 columns, thus we could record responses in up to eight different cell lines in each plate. On the day of the experiment, the growth medium was replaced with 20 µL assay buffer/well (140 mM NaCl, 5 mM KCl, 2 mM CaCl2, 1 mM MgCl2, 5 mM HEPES-Na, 20 mM glucose, pH 7.3, 340 mOsm). […] Baseline fluorescence (F0) was recorded for 5 s, after which 7 µL VOC buffer (140 mM NaCl, 5 mM KCl, 2 mM CaCl2, 1 mM MgCl2, 5 mM HEPES-Na, 31 mM glucose, 0.1% DMSO, pH 7.3, 340 mOsm) was injected into each well in one row and the fluorescence response was recorded for an additional 30 s, at a rate of one read/sec. VOC solutions (VOC buffer with 4× concentration of the final measured VOC concentration, 9 µL/well was injected) were measured on the same wells in a second round with the same protocol. Each individual concentration of a specific VOC sample was recorded in three wells for the same cell line on the same microplate. The raw data were exported in xls file format, F0 and FMAX values, and the fluorescence intensity changes (∆F) were calculated in Excel (Microsoft) (Supplementary file Data summary.xlsx) using the following equation: ΔF=FMAX-F0/F0 (see also Fig. 1C). On each plate, we recorded the response of each cell line to 50 µM VUAA1. The average of these ∆F values of each cell line were used to calculate the VUAA1-normalized values for the rest of the plate, by dividing VOC response ∆F values by the average VUAA1 response ∆F value of the corresponding OR cell line. Each VOC-OR combination was measured three times as technical replicates. […] The average of these replicates were used as one ∆F and VUAA1-normalized ∆F in the following analysis.
In the next rows we tested the reference VOCs (or other VOCs known to activate the corresponding cell lines), in order to test if all cell lines are responsive. The remaining rows were used to test VOCs with unknown effect.
The recorded FMAX, F0, ∆F, VUAA1-normalized ∆F values, as well as the OR name, the name of the tested sample, and the final concentration for each well were copied into supplementary file Data summary.xlsx, that was used to summarize all the plates recorded. Here, the averages of the measurements were calculated for each receptor-VOC-concentration combination.

[1] abbreviates: HEK293, read-out: OR85b response (VUAA1-normalized response).

Turning to `CC(=O)CCC=C(C)C` [6-methyl-5-hepten-2-one], under setting [1], the activation at 1 µM turned out to be 0%. Moreover, the activation at 10 µM under setting [1] worked out at 0%. Also, the activation at 100 µM under setting [1] worked out at 0%. The Average response is, setting by setting: (cc. 1 µM) 0.00; (cc. 10 µM) 0.00; (cc. 100 µM) 0.037. In addition, the “DF norm AVERAGE OR85b” value (concentration 1) was 0, the “DF norm AVERAGE OR85b” value (concentration 10) came out at 0 and the “DF norm AVERAGE OR85b” value (concentration 100) is given as 0.
